Values quoted from earlier work, collected in patent US20030171260A1, “Compositions and methods utilizing hydroxamates to scavenge oxidant toxins” (priority 2002, published 2003).
Structures can show the parent of a compound that is named as a salt.

Test system: rat

Compound: CC(=O)N(O)CCCCCNC(=O)CCC(=O)N(O)CCCCCNC(=O)CCC(=O)N(O)CCCCCN [desferoxamine mesylate]
- intraperitoneal LD50 dose (intraperitoneal): 330 mg/kg
- subcutaneous LD50 dose (subcutaneous): 5,500 mg/kg
